The series relates to VpC^+/+ (wild type) mice. To be noted: mouse, in vivo. As to the method:
Cohorts of equivalent gender Msh2^flox/floxVpC^+/+ mice were treated with NSAIDs including ASA that were mixed with powdered diet and administered ad libitum. VpC^+/+ (Msh2^++) mice were similarly examined to control for potentially confounding effects of continuous Cre expression in the intestine. Kaplan-Meier survival analyses were generated for each NSAID treatment (FIG. 2).

Take “nitric oxide-donating sulindac [NO-Sulindac]”: the “survival of wild type mice (in words)” value is “significant reduce the survival of the wild type mice”.

The record behind these values is patent publication US20150292023A1, “Materials and Methods Related to NSAID Chemoprevention in Colorectal Cancer” (priority 2011, published 2015).
